# Experimental data reported in PubChem BioAssay AID720708 (National Center for Advancing Translational Sciences (NCATS), 2013).
# Chains of the proteins cited; added tags and fusions are not shown. Lines headed by an entry give the natural chain unless they say otherwise; changes in a name come on top.
# UniProt Q8WZA2: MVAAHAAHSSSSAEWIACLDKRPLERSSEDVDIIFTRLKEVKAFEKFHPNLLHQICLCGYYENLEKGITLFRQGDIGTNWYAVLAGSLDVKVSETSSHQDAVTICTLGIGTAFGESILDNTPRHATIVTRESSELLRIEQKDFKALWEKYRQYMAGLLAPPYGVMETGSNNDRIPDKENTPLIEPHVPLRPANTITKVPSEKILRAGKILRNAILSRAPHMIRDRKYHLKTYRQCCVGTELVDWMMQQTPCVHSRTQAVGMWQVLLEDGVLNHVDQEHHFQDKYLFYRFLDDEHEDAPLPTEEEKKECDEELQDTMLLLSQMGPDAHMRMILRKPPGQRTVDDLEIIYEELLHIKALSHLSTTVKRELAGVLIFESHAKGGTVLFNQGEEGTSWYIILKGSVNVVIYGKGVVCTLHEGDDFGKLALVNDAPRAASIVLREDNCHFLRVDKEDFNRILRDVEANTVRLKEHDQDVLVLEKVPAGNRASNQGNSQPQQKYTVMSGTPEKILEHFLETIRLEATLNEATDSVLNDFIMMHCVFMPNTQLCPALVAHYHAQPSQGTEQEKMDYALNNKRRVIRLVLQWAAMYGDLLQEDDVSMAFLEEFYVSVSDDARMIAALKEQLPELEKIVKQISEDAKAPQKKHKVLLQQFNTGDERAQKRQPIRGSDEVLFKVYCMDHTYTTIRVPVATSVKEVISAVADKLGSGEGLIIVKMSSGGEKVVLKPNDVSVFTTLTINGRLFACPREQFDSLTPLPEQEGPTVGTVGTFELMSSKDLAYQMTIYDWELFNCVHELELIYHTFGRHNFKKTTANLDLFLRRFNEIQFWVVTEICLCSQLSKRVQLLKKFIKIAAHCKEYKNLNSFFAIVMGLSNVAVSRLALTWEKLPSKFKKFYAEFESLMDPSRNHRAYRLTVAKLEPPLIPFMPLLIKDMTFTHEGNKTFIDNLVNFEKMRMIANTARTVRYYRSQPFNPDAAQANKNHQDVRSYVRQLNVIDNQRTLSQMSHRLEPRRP
# This is a selection; strong and weak results do not stand in their true shares. Active and inactive are the calls of the source. The call rests on the fitted dose curve; in most records, active means well fitted inhibition curve with a large enough effect; inconclusive means small, poorly fitted or top-dose-only effect; inactive means no such curve, though single readings can be large or run the other way.
# Target: Rap guanine nucleotide exchange factor 4 (Homo sapiens) (UniProt Q8WZA2)
# Experiment: qHTS for Antagonist of cAMP-regulated guanine nucleotide exchange factor 2 (EPAC2): primary screen; further: nearly all actives have a fitted effect of over 45% in size
# Conditions: EPAC2 GEF exchange of Rap1B-BODIPY-GDP, fluorescence; at 114 µM (top of the series) unless noted
# On the % scale 0 is the no-effect control and ±100 the full control effect.
row,SMILES,"activity, negative = inhibition"
1,CCOc1ccc(C2=NCC(CBr)S2)cc1 (stereo not drawn),inactive: 19.4%
2,O=P1(Nc2nc3ccc(Cl)cc3s2)COc2ccccc2O1 (stereo not drawn),inactive: 9.33%
3,CCc1cc(O)c([N+](=O)[O-])c(C)c1[N+](=O)[O-],inactive: -4.77%
4,CC(C)(C)C(=O)NC(Sc1ccccc1)C(Cl)(Cl)Cl (stereo not drawn),inactive: -11.9%
5,CC(=O)NC(SC(=S)N(CC(C)C)CC(C)C)C(Cl)(Cl)Cl (stereo not drawn),inactive: -2.5%
6,COC(=O)c1cc2c(s1)N=C(c1ccccc1)N(C)P2(=O)N1CCOCC1 (stereo not drawn),inactive: 7.17%
7,CCC(=O)N1C2C3N(C(=O)CC)C1C1N(C(=O)CC)C(C(N1C(=O)CC)N3C(=O)CC)N2C(=O)CC,inactive: 1.84%
8,O=C(OC1CN2CCC1CC2)c1ccccc1 (stereo not drawn),inactive: 10.3%
9,CN(C)C(=O)Oc1noc2ccccc12,inactive: -0.956%
10,CC(NC(=O)COC(=O)C(O)(c1ccccc1)c1ccccc1)c1ccccc1 (stereo not drawn),inactive: -20.9%
11,O=C(NC1CCS(=O)(=O)C1)NP(=S)(Oc1ccccc1)Oc1ccccc1 (stereo not drawn),inactive: -19.4%
12,CCNC(=S)/N=C(\N)N[N+](=O)[O-],inactive: 4.64%
13,c1ccc(-c2nn[nH]n2)c(-c2nn[nH]n2)c1,inactive: 6.87%
14,O=P1(N(CCCl)CCCl)OCCC2CCCCN21 (stereo not drawn),inactive: 17.4%
15,NC(=O)Nc1ccc([As](=O)(O)O)cc1,inactive: -2.63%
16,CN(C(=O)Cc1ccc(Cl)c(Cl)c1)[C@H]1CC[C@@]2(CCCO2)C[C@@H]1N1CCCC1,inactive: 0.557%
17,CN(C)C(=O)c1cc([N+](=O)[O-])cc2c1-c1c(cc([N+](=O)[O-])cc1[N+](=O)[O-])C2=O,inactive: -22.2%
18,O=[N+]([O-])c1ccc2c(c1)nnn2O,inactive: -3.27%
19,CN(C(=O)Cc1ccccc1)[C@@H]1CC[C@]2(CCCO2)C[C@H]1N1CCCC1,inactive: -8.4%
20,CCOP1(=S)c2c(C)nn(CCC#N)c2N=C(c2ccc(F)cc2)N1C (stereo not drawn),inactive: -7.69%
21,N#CCCN(C(=O)COC(=O)C(O)(c1ccccc1)c1ccccc1)c1ccc(F)cc1,inactive: -5.38%

row,SMILES,"activity, negative = inhibition"
1,CS(=O)(=O)c1cc([N+](=O)[O-])c2no[n+]([O-])c2c1,inactive: -10.5%
2,O=P(Nc1nccs1)(c1ccccc1)c1nc2ccccc2s1 (stereo not drawn),inactive: 1.16%
3,O=P(Nc1nccs1)(Oc1ccccc1)Oc1ccccc1,inactive: -10.2% [at 57.1 µM]
4,CCOP1(=S)c2c(C)nn(CCC#N)c2N=C(c2ccccc2F)N1C (stereo not drawn),inactive: -1.52%
5,O=C(O)COc1ccc([As](=O)(O)O)cc1[N+](=O)[O-],inactive: 2.79%
6,Nc1ccccc1[As](=O)(O)c1ccccc1,inactive: 4.04%
7,CCCOP(=S)(Nc1nc(N)cc(=O)[nH]1)OCCC,inactive: -7.49%
8,Cc1ccc(NCCc2c([N+](=O)[O-])cc([N+](=O)[O-])cc2[N+](=O)[O-])cc1,inactive: 1.36%
9,Nc1cccc2c([As](=O)(O)O)cccc12,inactive: 5.01%
10,COc1cc(C2NCCC3(OCCO3)C2(C)C)cc(OC)c1OC (stereo not drawn),inactive: 13.4%
11,CS(=O)(=O)c1ccc(Cl)c(NC(=O)COC(=O)C(O)(c2ccccc2)c2ccccc2)c1,inactive: -3.44%
12,COc1cc(C(=O)NCC2(N3CCOCC3)CCCCC2)cc(Cl)c1OC(C)C,inactive: -16.9%
13,O=[As](O)(O)c1cccnc1,inactive: -9.23%
14,O=C(OC1CN2CCC1CC2)c1ccc(Cl)cc1 (stereo not drawn),inactive: -5.94%
15,O=[As](O)(c1cccc(O)c1)c1cccc(O)c1,inactive: -1.55%
16,Cc1cccc(OCC(=O)OC2CN3CCC2CC3)c1 (stereo not drawn),inactive: -21.1%
17,COc1ccccc1CNC(=O)COC(=O)C(O)(c1ccccc1)c1ccccc1,inactive: 1.87%
18,CC1(CBr)Cn2c(nc3ccccc3c2=O)S1 (stereo not drawn),inactive: -4.47%
19,CN(C(=O)Cc1ccc(Cl)c(Cl)c1)[C@@H]1CCCC[C@H]1N1CCCC1,inactive: -16.7%
20,CC(C)/C=N\N=C(\N)N[N+](=O)[O-],inactive: 30.2%
21,CN(CCCl)Cc1cc(Cl)c(NC2=NCCN2)c(Cl)c1,inactive: -11%

row,SMILES,"activity, negative = inhibition"
1,CCOP(=O)(Nc1ccc(C)cn1)OCC,inactive: 0.762%
2,CCOP(=O)(NC(=NC(C)c1ccccc1)NC(C)c1ccccc1)OCC (stereo not drawn),inactive: 6.41%
3,CCC1=CC2Cc3nc4ccc(Cl)cc4c(N)c3C(C1)C2 (stereo not drawn),inactive: -10.3%
4,O=P1(Nc2ccccn2)COc2ccccc2OC1,inactive: 4.4%
5,CC(C)(C)C(=O)NC(Sc1ncccn1)C(Cl)(Cl)Cl (stereo not drawn),inactive: -1.12%
6,Clc1n[nH]nc1-c1nn[nH][15n]1,inactive: -0.204%
7,O=P1(N(CCCl)CCCl)NCCC(C(F)(F)F)O1 (stereo not drawn),inactive: 8.45%
8,O=P1(Nc2ncccn2)COc2ccccc2OC1,inactive: 4.52%
9,Cc1ccc(S(=O)(=O)N(CCCN)CCCc2c(C)nc(N)[nH]c2=O)cc1,inactive: -24.2%
10,NS(=O)(=O)c1cccc(NC(=O)COC(=O)C(O)(c2ccccc2)c2ccccc2)c1,inactive: -6.8%
11,O=P1(Nc2ccc(Br)cn2)COc2ccccc2OC1,inactive: 15.5%
12,Cc1ccc(OCC(=O)OC2CN3CCC2CC3)cc1 (stereo not drawn),inactive: 18.4%
13,O=[As](O)(c1cccs1)c1cccs1,inactive: 9.95%
14,Nc1cccc([As](=O)(O)c2ccccc2)c1,inactive: 9.31%
15,Cc1ccc(C(=O)OC2CN3CCC2CC3)cc1 (stereo not drawn),inactive: -4.79%
16,Cc1nn(-c2ccccc2)c2c1P(=O)(N1CCOCC1)N(C)C(c1ccccc1)=N2 (stereo not drawn),inactive: -1.18%
17,CCCC1OP(=O)(Nc2ccccc2)OCC1CC (stereo not drawn),inactive: 1.95%
18,O=C(/C=C/c1ccccc1)OC1CN2CCC1CC2 (stereo not drawn),inactive: 2.39%
19,CN(C)C1(CNC(=O)c2ccc(S(C)(=O)=O)cc2)CCCCC1,inactive: -1.82%
20,CCOC(=O)Nc1cccc([As](=O)(O)O)c1,inactive: -1.93%
21,O=[N+]([O-])c1ccc(Nc2ccc(Oc3ccc([N+](=O)[O-])cc3[N+](=O)[O-])cc2)c([N+](=O)[O-])c1,inactive: 3.69%
